US20090258079A1, “Biocompatible Block Copolymer, Use Thereof and Manufacturing Method Thereof” (priority 2005, published 2009)

Experiments:
[1] = Solubilization of a drug by micelle formation with the block copolymer; conditions: drug without block copolymer
[2] = Dispersion and stability of drug micro-crystal composite (underwater kneading); assay type: physicochemical; conditions: 10 mg in mortar, kneaded with 1 ml of liquid
Source text: To prepare a drug composite particle comprising the block copolymer of the present invention as a constituent component, for example, an underwater kneading method is employed. A drug composite can be manufactured by adding a drug to an aqueous solution of the block copolymer and kneading them together. A composite of a nano-order drug crystal and the block copolymer can be formed by carrying out kneading efficiently and the suspended state of the drug is kept stably.
It is understood from this that the block copolymer of the present invention can form a stable composite with drug micro-crystals.

dexamethasone palmitate [DMP]
solubility of the drug alone in water [1]: insoluble in water
dispersion of dexamethasone palmitate crystals on kneading [2]: did not disperse
